Measurements: US10117433B2 (priority 2011, dated 2018)
Marks after values point to notes of the source that are not given here.

Experiments:
[1] = tested on: M. brassicae larvae; assay: Injection toxicity of Hv1a/GNA and Hv1a in fifth stadium M. brassicae larvae; assay type: in vivo, Mamestra brassicae; conditions: for Mortality (%): 72 h after injection
[2] = tested on: housefly Musca domestica; conditions: recombinant Hv1a; cited from earlier work
[3] = tested on: lone star tick Amblyomma americanum; conditions: recombinant Hv1a; cited from earlier work
[4] = tested on: sheep blowfly Lucilia cuprina; conditions: unpublished data (V. Herzig and G. F. K); cited from earlier work
[5] = tested on: Heliothis armigera; conditions: exposed to transgenic tobacco expressing Hv1a; cited from earlier work
[6] = tested on: S. littoralis; conditions: exposed to transgenic tobacco expressing Hv1a; cited from earlier work

With ω-ACTX-Hv1a the “Mortality (%)” value ([1]; dose 46 μg/insect (Hv1a equivalents)) was 20%, the “Mortality (%)” value ([1]; dose 92 μg/insect (Hv1a equivalents)) was 80* % and the “Mortality (%)” value ([1]; dose 184 μg/insect (Hv1a equivalents)) was 90* %. For the same substance, the mortality ([1]; injected with 92 μg toxin/g insect) was 80%, the LD50 [2] was 77 pmol/g and the LD50 [3] was 716 pmol/g. For the same substance, the “LD50 per os compared with injection” value [4] was 90 fold, the mortality [5] was 100% and the mortality [6] was 100%.
